The values that follow come from patent US8633206B2, “Pyrrolo[2,3-D]pyrimidine compounds” (Pfizer Inc., priority 2009, dated 2014).

Protein sequences, listed by entry. Tags and fused reporters are not part of them. Lines headed by an entry give the natural chain unless they say otherwise; changes in a name come on top. Residues count along the entry.
UniProt P52333, 781-1124: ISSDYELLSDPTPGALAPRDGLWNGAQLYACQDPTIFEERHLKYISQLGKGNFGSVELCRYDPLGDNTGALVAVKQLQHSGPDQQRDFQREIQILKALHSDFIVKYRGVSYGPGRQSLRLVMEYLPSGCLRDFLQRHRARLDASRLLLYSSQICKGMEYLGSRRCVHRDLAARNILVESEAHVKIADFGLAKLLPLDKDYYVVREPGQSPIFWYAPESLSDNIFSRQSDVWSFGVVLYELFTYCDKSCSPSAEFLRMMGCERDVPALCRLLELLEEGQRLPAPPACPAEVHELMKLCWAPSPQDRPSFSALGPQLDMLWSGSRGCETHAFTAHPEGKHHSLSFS
UniProt O60674, 808-1132: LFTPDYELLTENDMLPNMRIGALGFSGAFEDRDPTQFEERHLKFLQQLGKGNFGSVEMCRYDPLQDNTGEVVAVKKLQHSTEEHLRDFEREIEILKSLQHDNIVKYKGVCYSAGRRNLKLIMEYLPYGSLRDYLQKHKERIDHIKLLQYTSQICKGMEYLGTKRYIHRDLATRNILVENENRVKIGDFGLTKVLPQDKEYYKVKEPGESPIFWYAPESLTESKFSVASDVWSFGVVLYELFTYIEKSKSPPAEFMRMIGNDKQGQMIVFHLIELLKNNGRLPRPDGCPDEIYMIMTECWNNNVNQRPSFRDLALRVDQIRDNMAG
UniProt P23458: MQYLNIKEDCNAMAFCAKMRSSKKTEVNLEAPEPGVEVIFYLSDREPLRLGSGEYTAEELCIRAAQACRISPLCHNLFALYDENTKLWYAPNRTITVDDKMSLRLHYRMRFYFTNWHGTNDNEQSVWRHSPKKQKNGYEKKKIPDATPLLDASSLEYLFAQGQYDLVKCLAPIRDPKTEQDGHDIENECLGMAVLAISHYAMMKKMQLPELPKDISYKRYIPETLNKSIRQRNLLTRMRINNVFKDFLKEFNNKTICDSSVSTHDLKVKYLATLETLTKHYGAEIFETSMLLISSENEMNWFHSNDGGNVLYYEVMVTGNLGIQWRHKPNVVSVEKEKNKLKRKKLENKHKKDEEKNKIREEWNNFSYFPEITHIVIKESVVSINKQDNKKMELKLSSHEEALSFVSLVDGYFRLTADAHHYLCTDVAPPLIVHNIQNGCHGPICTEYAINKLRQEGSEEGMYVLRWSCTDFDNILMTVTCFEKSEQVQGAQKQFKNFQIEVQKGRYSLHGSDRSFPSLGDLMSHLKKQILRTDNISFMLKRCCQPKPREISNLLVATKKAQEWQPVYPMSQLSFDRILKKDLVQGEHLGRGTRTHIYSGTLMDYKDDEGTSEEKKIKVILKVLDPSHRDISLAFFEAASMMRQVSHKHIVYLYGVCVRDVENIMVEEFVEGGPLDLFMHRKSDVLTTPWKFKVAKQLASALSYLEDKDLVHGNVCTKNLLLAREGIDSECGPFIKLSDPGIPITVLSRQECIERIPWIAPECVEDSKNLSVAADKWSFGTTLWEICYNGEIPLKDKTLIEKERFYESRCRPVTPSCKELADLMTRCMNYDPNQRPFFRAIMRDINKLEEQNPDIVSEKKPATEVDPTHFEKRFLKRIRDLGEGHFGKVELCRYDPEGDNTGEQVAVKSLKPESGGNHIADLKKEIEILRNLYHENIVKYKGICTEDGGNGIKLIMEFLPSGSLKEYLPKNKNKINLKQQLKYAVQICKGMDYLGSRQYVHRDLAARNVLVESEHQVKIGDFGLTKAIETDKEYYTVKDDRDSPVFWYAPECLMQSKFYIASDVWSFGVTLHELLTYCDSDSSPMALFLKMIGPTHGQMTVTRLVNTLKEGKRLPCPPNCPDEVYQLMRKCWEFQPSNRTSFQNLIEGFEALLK

Common to all, as to format: biochemical
Assay [1] concerns the target JAK3 (Homo sapiens (Human), UniProt P52333). The assay is described as follows: JAK enzymatic assay (peptide mobility shift), JAK3. To be noted: recombinant JAK3 1 nM, JAKtide peptide, 90 minutes. The method, then: (§1) Recombinant JAK1 (Catalog Number PV4775), JAK2 (Catalog Number PV4210) and JAK3 (Catalog Number PV3855) were purchased from (Invitrogen Corporation, Madison, Wis.). […] Adenosine 5′-triphosphate (ATP) was obtained from (Sigma Chemical Company, St. Louis, Mo.). […] Coating Reagent 3 was purchased from (Caliper Life Sciences, Hopkinton, Mass.).
(§2) Compounds were diluted serially in 100% dimethyl sulfoxide and tested in an 11 point dose response in duplicate or quadruplicate (200 nl of compound/DMSO was added per 10 L reaction). […] The assay was run for 240 minutes for JAK1, 150 minutes for JAK2, 90 minutes for JAK3 and 70 minutes for Tyk2. […] The plates were placed on a LabChip 3000 (LC3000) instrument from (Caliper Life Sciences) to measure the formation of phosphorylated peptide. Data was analyzed using Hits Well Analyzer Software from (Caliper Life Sciences) to obtain the amount of product formed.
(§3) Data was then imported into an internal application where each data point is expressed as % inhibition based on uninhibited and no enzyme controls. Dose-response data is then fit using a 4 parameter logistic equation (Equation 1) to determine an IC50.

Assay [2] has as its target JAK2 (Homo sapiens (Human), UniProt O60674). The assay is described as follows: JAK enzymatic assay (peptide mobility shift), JAK2. The following applies: recombinant JAK2 2 nM, JAKtide peptide, 150 minutes. From the text:
Recombinant JAK1 (Catalog Number PV4775), JAK2 (Catalog Number PV4210) and JAK3 (Catalog Number PV3855) were purchased from (Invitrogen Corporation, Madison, Wis.). Tyk2 (His-Tyk2 (888-1182, C936S, C1142S)) used in this study was expressed and purified at Pfizer Laboratories. Adenosine 5′-triphosphate (ATP) was obtained from (Sigma Chemical Company, St. Louis, Mo.). […] Coating Reagent 3 was purchased from (Caliper Life Sciences, Hopkinton, Mass.).
A peptide mobility shift assay was used to quantify the phosphorylation of the JAKtide (JAK2 and JAK3) or the IRS-1 peptide (JAK1 and Tyk2). Reactions were carried out in a 384-well plate (Matrical MP-101) in a 10 L total volume. […] Compounds were diluted serially in 100% dimethyl sulfoxide and tested in an 11 point dose response in duplicate or quadruplicate (200 nl of compound/DMSO was added per 10 L reaction). The reactions were initiated by the addition of enzyme to the final concentration of 2 nM JAK2, 1 nM JAK3, 12 nM Tyk2 or 20 nM JAK1. The assay was run for 240 minutes for JAK1, 150 minutes for JAK2, 90 minutes for JAK3 and 70 minutes for Tyk2. […] Data was analyzed using Hits Well Analyzer Software from (Caliper Life Sciences) to obtain the amount of product formed.
Data was then imported into an internal application where each data point is expressed as % inhibition based on uninhibited and no enzyme controls. […]

The target of assay [3] is JAK1 (Homo sapiens (Human), UniProt P23458). The assay is described as follows: JAK enzymatic assay (peptide mobility shift), JAK1. To be noted: recombinant JAK1 20 nM, IRS-1 peptide, 240 minutes. As for the experimental part:
as §1, §2, §3

With `CN(c1ncnc2[nH]ccc12)[C@H]1CC[C@H](CS(=O)(=O)N2CC[C@@H](O)C2)CC1` [Example 1], the IC50 – broadly, the concentration that inhibits the measured activity by half – in assay [1] is 163 nM.

As for `CN(c1ncnc2[nH]ccc12)[C@H]1CC[C@H](CS(=O)(=O)N2CCC(CO)CC2)CC1` [Example 2, (1-((Trans-4-(methyl(7H-pyrrolo[2,3-d]pyrimidin-4-yl)amino)cyclohexyl)-methylsulfonyl)piperidin-4-yl)methanol], the IC50 in assay [2] worked out at 43.8 nM.

As to `CCN[C@@H](C)[C@@H]1CCN(S(=O)(=O)C[C@H]2CC[C@H](N(C)c3ncnc4[nH]ccc34)CC2)C1` [Example 27, N-{trans-4-[({(3R)-3-[(1S)-1-(ethylamino)-ethyl]pyrrolidin-1-yl}-sulfonyl)methyl]cyclohexyl}-N-methyl-7H-pyrrolo[2,3-d]pyrimidin-4-amine], the figures for the IC50 in assay [2], in assay [3] and in assay [1] were 62.5 nM, 11.1 nM and 1190 nM, respectively.
